Literature values in US20230172920A1, “DOSING REGIMEN FOR TREATING A DISEASE MODULATED BY CSF-1R” (Novartis AG, priority 2020, published 2023).

Conditions: human, in vivo; cited from earlier work

Q: Which “serum enzyme increases in clinical trials” value does the source give for “emactuzumab: monoclonal antibody against CSF-1R” here?
A: The value was “Asymptomatic serum enzyme increases”.
